Measurements taken from patent publication US8979831B2 (priority 2008, dated 2015).
“And” between values parts separate entries of the source, which are not always exact repeats. Equal entries are not always repeated.

Assay: Temperature profile of hydrolysis of ethyl chloroformate in water in hydrophobic gel phantom
Settings: 200 microliters of 0.5M + 200 microliters of water

## CCOC(=O)Cl
0 sec
  Temperature, single run: 23.2 °C and 23.4 °C and 23.6 °C
15 sec
  Temperature, single run: 32 °C and 31.8 °C
30 sec
  Temperature, single run: 30.9 °C and 30.2 °C and 30.7 °C
45 sec
  Temperature, single run: 29.6 °C and 29.5 °C and 29.8 °C
60 sec
  Temperature, single run: 28.2 °C and 29 °C and 29.2 °C
75 sec
  Temperature, single run: 28.1 °C and 28.6 °C and 28.4 °C
90 sec
  Temperature, single run: 27.6 °C and 28.1 °C and 27.9 °C
105 sec
  Temperature, single run: 26.8 °C and 27.6 °C
120 sec
  Temperature, single run: 27.1 °C and 27.3 °C
135 sec
  Temperature, single run: 26.9 °C and 26.7 °C and 27 °C
150 sec
  Temperature, single run: 26.6 °C and 26.7 °C
165 sec
  Temperature, single run: 26.3 °C and 26.4 °C
180 sec
  Temperature, single run: 26.1 °C and 26.2 °C
195 sec
  Temperature, single run: 25.8 °C and 26 °C
210 sec
  Temperature, single run: 25.4 °C and 25.9 °C
225 sec
  Temperature, single run: 25.4 °C and 25.7 °C and 25.5 °C
240 sec
  Temperature, single run: 25.4 °C and 25.5 °C and 25.6 °C
255 sec
  Temperature, single run: 25.2 °C and 25.5 °C
270 sec
  Temperature, single run: 25.1 °C and 25.4 °C and 25.3 °C
285 sec
  Temperature, single run: 25 °C and 25.2 °C
300 sec
  Temperature, single run: 24.9 °C and 25 °C and 25.1 °C
